Consider one molecule from patent US11008317B2, “Triazolopyridine inhibitors of myeloperoxidase and/or EPX” (priority 2016, dated 2021).

Protein sequences, listed by entry. Tags and fused reporters are not part of them. Residues count along the entry.
UniProt P05164, 49-745 limits assumed: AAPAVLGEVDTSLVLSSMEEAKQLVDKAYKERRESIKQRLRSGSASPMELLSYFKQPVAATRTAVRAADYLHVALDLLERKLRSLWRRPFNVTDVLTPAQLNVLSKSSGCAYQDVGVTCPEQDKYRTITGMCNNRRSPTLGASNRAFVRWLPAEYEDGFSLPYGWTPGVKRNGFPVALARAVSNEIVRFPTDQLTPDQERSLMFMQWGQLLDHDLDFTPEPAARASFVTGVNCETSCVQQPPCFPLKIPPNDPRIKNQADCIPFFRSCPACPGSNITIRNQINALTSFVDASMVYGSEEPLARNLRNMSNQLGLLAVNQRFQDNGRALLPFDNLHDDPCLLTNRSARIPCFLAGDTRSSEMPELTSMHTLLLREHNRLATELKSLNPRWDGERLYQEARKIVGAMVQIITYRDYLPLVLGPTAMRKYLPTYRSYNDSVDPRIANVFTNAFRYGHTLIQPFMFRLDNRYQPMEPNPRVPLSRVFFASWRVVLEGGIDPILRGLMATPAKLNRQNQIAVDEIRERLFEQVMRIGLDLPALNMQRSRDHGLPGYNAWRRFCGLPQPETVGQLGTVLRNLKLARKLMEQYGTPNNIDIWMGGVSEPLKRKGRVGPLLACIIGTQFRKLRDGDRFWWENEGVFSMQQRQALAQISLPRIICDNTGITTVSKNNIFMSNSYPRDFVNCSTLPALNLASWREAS

Where two headings read alike, the source gives them in different places.

For experiment [1], the target named is T1, myeloperoxidase (Homo sapiens, UniProt P05164). Conditions: read-out: Amplex Red Assay IC50 value; MPO peroxidation, potency range class.
Experiment [2] concerns the target T1, myeloperoxidase. The experiment can be described thus: MPO Chlorination Assay (APF Assay). Conditions: read-out: APF Assay IC50 value, potency range class.

For the molecule `Nc1cc(C(CCNC23CC4CC(C2)CC(c2ccccc2)(C4)C3)c2ccccc2)c2nn[nH]c2n1` (centres unmarked), the concentration for half-maximal inhibition (IC50) (commonly the point on the concentration scale where inhibition reaches its midpoint) lay in the range of 101 to 999 nM in experiment [1] and 1 to 100 nM in experiment [2].
